We go through four compounds from patent US20240156825A1, “USE OF SELECTIVE VEGFR2 AND FGFR1 INHIBITORS” (Fountain Therapeutics Inc., priority 2022, published 2024).

Amino acid sequences for entries named in this document (tags omitted). Residues count along the entry.
UniProt P35968, 20-1356, species assumed: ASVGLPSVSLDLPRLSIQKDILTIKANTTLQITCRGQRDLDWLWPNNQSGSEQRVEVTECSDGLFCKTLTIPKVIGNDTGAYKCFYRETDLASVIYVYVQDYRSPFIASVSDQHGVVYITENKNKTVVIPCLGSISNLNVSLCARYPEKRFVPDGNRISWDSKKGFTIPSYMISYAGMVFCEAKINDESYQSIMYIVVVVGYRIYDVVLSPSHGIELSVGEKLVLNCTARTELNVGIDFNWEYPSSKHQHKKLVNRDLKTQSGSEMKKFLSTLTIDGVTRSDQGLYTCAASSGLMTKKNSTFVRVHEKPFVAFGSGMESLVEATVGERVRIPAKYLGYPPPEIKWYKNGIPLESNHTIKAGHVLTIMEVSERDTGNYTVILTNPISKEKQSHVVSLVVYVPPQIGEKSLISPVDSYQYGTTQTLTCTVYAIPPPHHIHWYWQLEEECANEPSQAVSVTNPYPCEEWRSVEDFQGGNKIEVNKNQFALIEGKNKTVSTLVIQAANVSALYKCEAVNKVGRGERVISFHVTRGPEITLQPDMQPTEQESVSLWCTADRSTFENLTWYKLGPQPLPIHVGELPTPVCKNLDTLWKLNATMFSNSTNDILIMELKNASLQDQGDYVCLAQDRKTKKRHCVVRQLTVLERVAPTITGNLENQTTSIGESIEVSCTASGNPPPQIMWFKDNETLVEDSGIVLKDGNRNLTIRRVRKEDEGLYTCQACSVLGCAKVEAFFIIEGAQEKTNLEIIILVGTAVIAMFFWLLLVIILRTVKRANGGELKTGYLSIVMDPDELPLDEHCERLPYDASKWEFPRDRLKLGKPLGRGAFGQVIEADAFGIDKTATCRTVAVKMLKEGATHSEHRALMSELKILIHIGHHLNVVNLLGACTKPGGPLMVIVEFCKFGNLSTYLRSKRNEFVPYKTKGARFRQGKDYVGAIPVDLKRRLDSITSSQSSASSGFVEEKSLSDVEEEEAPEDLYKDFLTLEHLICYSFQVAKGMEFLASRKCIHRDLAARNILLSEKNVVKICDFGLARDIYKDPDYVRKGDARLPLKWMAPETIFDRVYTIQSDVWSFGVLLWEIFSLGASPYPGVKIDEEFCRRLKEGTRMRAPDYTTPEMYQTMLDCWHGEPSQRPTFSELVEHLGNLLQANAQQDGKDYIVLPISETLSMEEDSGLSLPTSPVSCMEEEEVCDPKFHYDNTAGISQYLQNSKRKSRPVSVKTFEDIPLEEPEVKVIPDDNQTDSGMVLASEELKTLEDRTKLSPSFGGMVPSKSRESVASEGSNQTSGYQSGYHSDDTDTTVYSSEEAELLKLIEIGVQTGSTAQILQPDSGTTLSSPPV

Like-named read-outs stand apart in the source and are kept apart here.

Test [1] concerns the target T1, VEGFR2 (Homo sapiens, UniProt P35968). Particulars: reported IC50 to VEGFR2, read-out: VEGFR2 IC50_μM, cited from earlier work.
The target of test [2] is T1, VEGFR2. Particulars: relative IC50: reported IC50 toward VEGFR2 divided by next lowest reported IC50 to any gene target.
Where [3] appears, read: Table 3, selective inhibitors of VEGFR2.

For `COc1cc2nccc(Oc3ccc4c(C(=O)Nc5ccc(Cl)cc5)cccc4c3)c2cc1OC` [compound 24757938], the IC50 on VEGFR2 [1] is 0.03 nM.
Take `COc1cc2c(Nc3ccc(Cl)c(Cl)c3F)ncnc2cc1OC[C@@H]1CN2CCCC[C@H]2C(=O)N1` [compound 57802612]: the IC50 on VEGFR2 [1] (setting [3]) is 50 nM.
Regarding `COc1cc2c(Nc3ccc(Cl)c(Cl)c3F)ncnc2cc1OC[C@@H]1CN2CCCC[C@@H]2C(=O)N1` [compound 57802634], the IC50 on VEGFR2 [1] (setting [3]) was 50 nM.
With `Nc1c(C(=O)c2cc3ccccc3[nH]2)cnn1-c1ccc2[nH]ccc2c1` [compound 134146580, [5-Amino-1-(1H-indol-5-yl)pyrazol-4-yl]-(1H-indol-2-yl)methanone], on VEGFR2 [2], the “VEGFR2, rIC50” value was found to be 0.5.
